In PubChem BioAssay AID1224865 (Sanford-Burnham Center for Chemical Genomics, 2016):
The list shows a part of the results, in another mix than the full data. Active and inactive are the calls of the source. No stated cut-off is given here; in the data, active means activity change above about 30% (passing the limit was not always enough); inactive means the rest.

Sequences of proteins named here, by UniProt entry; tags and fusion partners are left off.
UniProt P41235, whole entry: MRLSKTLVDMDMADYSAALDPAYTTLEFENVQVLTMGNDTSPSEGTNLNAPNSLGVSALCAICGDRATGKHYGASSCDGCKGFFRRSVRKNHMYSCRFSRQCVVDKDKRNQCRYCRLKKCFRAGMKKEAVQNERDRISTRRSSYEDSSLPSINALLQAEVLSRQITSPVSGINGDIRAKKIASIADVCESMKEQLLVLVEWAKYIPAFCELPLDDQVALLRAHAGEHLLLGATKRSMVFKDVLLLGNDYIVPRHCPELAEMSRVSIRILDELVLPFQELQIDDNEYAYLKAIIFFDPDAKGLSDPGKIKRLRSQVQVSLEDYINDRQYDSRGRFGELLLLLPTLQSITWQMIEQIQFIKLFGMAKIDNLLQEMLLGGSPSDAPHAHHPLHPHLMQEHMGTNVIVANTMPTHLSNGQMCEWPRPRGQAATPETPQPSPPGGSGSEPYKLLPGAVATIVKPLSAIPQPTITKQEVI

target: Hepatocyte nuclear factor 4-alpha (Homo sapiens) (UniProt P41235); assay: change in binding of human HNF4A to DNA, primary screen, biochemical, fluorescence polarization, FITC-DNA (AID 1224865); details: 1 h, at 10 µM, hits give high values

Which activity change does the source give for `COc1ccccc1-c1ccccn1.O=[N+]([O-])c1cc([N+](=O)[O-])c(O)c([N+](=O)[O-])c1` here?
Its activity change is inactive: 3.5%.

For `COc1ccc(N/C(=N/P(=O)(N2CCOCC2)N2CCOCC2)N2CCOCC2)cc1`, which activity change is on record?
The activity change was inactive: 3.94%.

With `O=[N+]([O-])c1cc(Oc2ccc([N+](=O)[O-])cc2C(F)(F)F)cc([N+](=O)[O-])c1` as the compound, how does the activity change read?
Its activity change is inactive: -0.36%.

Which activity change does the source give for `COc1cc(I)ccc1[As](=O)(O)O` here?
Its activity change is inactive: 0.61%.

Which activity change does the source give for `COc1ccc2nc(NP(=O)(c3ccccc3)c3ccccc3)sc2c1` here?
The activity change was inactive: -0.77%.

For `O=P1(N(CCCl)CCCl)Nc2ccccc2N1`, which activity change is on record?
Its activity change is inactive: 0.01%.

For `O=P1(N(CCCl)CCCl)OCCCN1CCCl` (configuration not stated), which activity change is on record?
The activity change was inactive: 2.06%.

`Cc1cc(=O)[nH]c(N[N+](=O)[O-])n1` was tested. Which activity change did it give?
The activity change was inactive: -1.35%.

`CCN(CC)CCCOC(=O)C(O)(c1ccccc1)c1ccccc1` was tested. Which activity change did it give?
Its activity change is inactive: 3.6%.

With `O=C(OC1CN2CCC1CC2)C12CC3CC(CC(C3)C1)C2` (configuration not stated) as the compound, how does the activity change read?
Its activity change is inactive: -1.84%.

With `Cc1c2c(nc3ccccc13)SC(C(Cl)Cl)C2` (configuration not stated) as the compound, how does the activity change read?
The activity change was inactive: 2.1%.

For `Cc1cc(C)cc(OP(C)(N)=O)c1` (configuration not stated), which activity change is on record?
Its activity change is inactive: 3.19%.

With `O=[N+]([O-])c1cc([N+](=O)[O-])c(-c2ccn[nH]2)s1` as the compound, how does the activity change read?
Its activity change is inactive: -0.48%.

Which activity change does the source give for `COc1ccc(OP(C)(=O)Nc2cccc(F)c2)cc1` (configuration not stated) here?
Its activity change is inactive: 0.48%.

`CCN(CC)C(=S)SC(NC=O)C(Cl)(Cl)Cl` (configuration not stated) was tested. Which activity change did it give?
Its activity change is inactive: -0.78%.

How did the activity change turn out when `O=C(OC1CN2CCC1CC2)c1cccc2[nH]cnc12` (configuration not stated) was run?
The activity change was inactive: -0.7%.

For `COc1ccccc1OP(C)(=O)Nc1cc(Cl)ccc1C` (configuration not stated), which activity change is on record?
Its activity change is inactive: -1.47%.

With `CC(C)NC(=O)NP(=O)(Oc1ccccc1)Oc1ccccc1` as the compound, how does the activity change read?
The activity change was inactive: -2.23%.

With `Cc1ccc(NP(C)(=O)Oc2ccccc2)c(C)c1` (configuration not stated) as the compound, how does the activity change read?
Its activity change is inactive: 2.36%.

Which activity change does the source give for `CC(C)c1ccc(OP(=O)(Nc2ccccn2)Oc2ccccc2F)cc1` (configuration not stated) here?
The activity change was inactive: -0.29%.

With `COC(=O)C1(C)COP(=O)(N2CCCCCC2)OC1` (configuration not stated) as the compound, how does the activity change read?
The activity change was inactive: -0.45%.

`COc1ccccc1OP(C)(=O)Nc1ccc(C)cc1` (configuration not stated) was tested. Which activity change did it give?
Its activity change is inactive: 0.62%.

With `ClCCSc1nnc(-c2cccnc2)o1` as the compound, how does the activity change read?
Its activity change is inactive: -2.03%.

Which activity change does the source give for `CCOC(=O)c1ccc(NP(C)(=O)Oc2ccccc2)cc1` (configuration not stated) here?
The activity change was inactive: 3.82%.

With `Cc1ccc2nc3c(c(C)c2c1)CC(C(Cl)Cl)S3` (configuration not stated) as the compound, how does the activity change read?
Its activity change is inactive: 1.52%.

Which activity change does the source give for `O=[N+]([O-])c1ccc2c(c1)C=Nc1ccccc1O2` here?
The activity change was inactive: 4.42%.

With `Cc1cccc(C)c1OP(C)(N)=O` (configuration not stated) as the compound, how does the activity change read?
The activity change was inactive: -2.08%.

`CC(Cc1ccc(O)cc1)NCC(O)c1cc(O)cc(O)c1` (configuration not stated) was tested. Which activity change did it give?
The activity change was inactive: 0.01%.

Which activity change does the source give for `CC(C)(C)c1ccc(OP(C)(=O)Nc2ccc(SC(F)(F)F)cc2)cc1` (configuration not stated) here?
The activity change was inactive: 2.02%.

`[N-]=[N+]=NC1CCCCC1NC(=O)c1cc([N+](=O)[O-])cc([N+](=O)[O-])c1` (configuration not stated) was tested. Which activity change did it give?
The activity change was inactive: -7.18%.

`Cc1ccc(OP(=O)(Nc2ccc([N+](=O)[O-])cn2)Oc2ccc(C)cc2)cc1` was tested. Which activity change did it give?
Its activity change is inactive: 3.09%.

For `COc1cc(C(=O)NCC2(N3CCOCC3)CCCCC2)ccc1OCC(C)C`, which activity change is on record?
Its activity change is inactive: -0.07%.

How did the activity change turn out when `O=[N+]([O-])c1ccc(-c2cc([N+](=O)[O-])c(O)c([N+](=O)[O-])c2)cc1` was run?
The activity change was inactive: -2.84%.

Which activity change does the source give for `O=[As](O)(c1ccc(O)cc1)c1ccccc1O` here?
Its activity change is inactive: -1.66%.

For `C[As](=O)(O)c1cccc(C(=O)O)c1`, which activity change is on record?
Its activity change is inactive: -2.2%.

For `O=[N+]([O-])c1cc([N+](=O)[O-])c(Nc2cccnc2)c([N+](=O)[O-])c1`, which activity change is on record?
Its activity change is inactive: 1.25%.

With `O=[N+]([O-])c1ccc(Nc2ccc(Oc3ccc([N+](=O)[O-])cc3[N+](=O)[O-])cc2)c([N+](=O)[O-])c1` as the compound, how does the activity change read?
The activity change was inactive: -2.65%.

How did the activity change turn out when `CP(=O)(Nc1ccccc1Br)Oc1ccccc1` (configuration not stated) was run?
The activity change was inactive: 0.01%.

With `COc1ccccc1OP(C)(=O)Nc1ccccc1` (configuration not stated) as the compound, how does the activity change read?
The activity change was inactive: 2.49%.

How did the activity change turn out when `O=P(Nc1ccccn1)(c1cccc2ccccc12)c1cccc2ccccc12` was run?
The activity change was inactive: 0.91%.

With `Cc1cc(SC(NC=O)C(Cl)(Cl)Cl)ncn1` (configuration not stated) as the compound, how does the activity change read?
Its activity change is inactive: -1.19%.

How did the activity change turn out when `CCOC(=O)Nc1cccc([As](=O)(O)O)c1` was run?
The activity change was inactive: 5.83%.

How did the activity change turn out when `CP(=S)(Nn1cnnc1)Oc1ccccc1` (configuration not stated) was run?
Its activity change is inactive: -3.61%.

How did the activity change turn out when `Cc1cc(SC(NC(=O)c2ccccc2)C(Cl)(Cl)Cl)nc(C(C)C)n1` (configuration not stated) was run?
The activity change was inactive: 2.01%.

For `CCCCOc1ccc(C(=O)NCC2(N3CCCCC3)CCCCC2)cc1OC`, which activity change is on record?
The activity change was inactive: 2.86%.

How did the activity change turn out when `COP(=O)(OC)N1CC1c1ccccc1` (configuration not stated) was run?
The activity change was inactive: 4.06%.

With `CC1CCNP(=O)(N(CCCl)CCCl)O1` (configuration not stated) as the compound, how does the activity change read?
Its activity change is inactive: -4.16%.
